From patent publication US20160184446A1, “METHOD OF INHIBITING BODY CAVITY FLUID ACCUMULATION” (Toray Industries, Inc., priority 2012, published 2016)

B1: naturally occurring human interferon-β: Naturally occurring human interferon-β (FERON; Toray Industries, Inc.) (protein, UniProt P01574 22-187, looked up)
Interferon beta: MSYNLLGFLQRSSNFQCQKLLWQLNGRLEYCLKDRMNFDIPEEIKQLQQFQKEDAALTIYEMLQNIFAIFRQDSSSTGWNETIVENLLANVYHQINHLKTVLEEKLEKEDFTRGKLMSSLHLKRYYGRILHYLKAKEYSHCAWTIVRVEILRNFYFINRLTGYLRN
B2: PEG-IFN-β: one PEG molecule (molecular weight 42,000) covalently bound to the amino group of lysine 134 of recombinant human interferon-β (conjugate, listed as Homo sapiens)
chain: B1 Interferon beta
modifications: 42 kDa PEG on Lys134
B3: interferon-β: unmodified interferon-β of literature clinical studies in malignant ascites (protein, listed as Homo sapiens)
chain: B1 Interferon beta

Tests used:
[1] = tested on: gastric cancer peritoneal metastasis mouse models (GCIY-EGFP cells); assay: Ascites accumulation in gastric cancer peritoneal metastasis mouse models, topical (intraperitoneal) administration; format: in vivo; conditions: intraperitoneal (topical), 5,000,000 U/mouse/dose, once a week for 4 weeks; ascites collected a week after final administration
Description: Gastric cancer peritoneal metastasis mouse models were produced, and the effect of PEG-IFN-β to inhibit ascites accumulation by topical administration were evaluated in accordance with the method of Nakanishi et al. (Cancer Science, 2003, Vol. 94, pp. 112-118).
GCIY-EGFP cells prepared by introducing the pEGFP-C1 plasmid (Clontech) into the GCIY human gastric cancer cells (No. RCB0555) obtained from Cell Bank, RIKEN BioResource Center, were cultured and maintained using DMEM medium containing 10% fetal bovine serum in an incubator at 37° C. and 5% CO2. The GCIY-EGFP cells were collected with trypsin/EDTA and washed with a Hank's balanced salt solution (HBSS) to prepare a GCIY-EGFP cell suspension. […]
Naturally occurring human interferon-β (FERON®; Toray Industries, Inc.) or PEG-IFN-β prepared in Example 1 was administered intraperitoneally (i.e., topically) to gastric cancer peritoneal metastasis mouse models (n=8) in amounts of 5,000,000 U/mouse/dose. […] Ascites was collected from the gastric cancer peritoneal metastasis mouse models under anesthesia a week after the final administration, and the liquid volume was measured. […]

[2] = tested on: gastric cancer peritoneal metastasis mouse models (GCIY-EGFP cells); assay: Ascites accumulation in gastric cancer peritoneal metastasis mouse models, systemic (subcutaneous) administration; format: in vivo; conditions: subcutaneous (systemic), 5,000 U/mouse/dose, twice a week for 4 weeks; ascites collected 2 weeks after final administration; vs PBS control
Description: Gastric cancer peritoneal metastasis mouse models were produced by transplanting human gastric cancer cells, GCIY-EGFP cells, intraperitoneally into male KSN nude mice in the same manner as in Example 2.
Naturally occurring human interferon-β (FERON®; Toray Industries, Inc.), or PEG-IFN-β or PEG-mIFN-β prepared in Example 1 was administered subcutaneously into the dorsal areas (i.e., via systemic administration) of the gastric cancer peritoneal metastasis mouse models (n=6) in an amount of 5,000 U/mouse/dose. Administration was initiated on the day after transplantation and performed twice a week for 4 weeks. Phosphate buffer (PBS) was administered to the control group in the same manner. Ascites was collected from the gastric cancer peritoneal metastasis mouse models under anesthesia 2 weeks after the final administration and the liquid volume was measured.
The vertical axis represents the amount of ascites (median; mL). On the horizontal axis, “Control (PBS)” represents the result of the group of systemic administration of phosphate buffer (PBS) (control group), “IFN-β” represents the result of the group of systemic administration of naturally occurring human interferon-β, “PEG-IFN-β” represents the result of the group of systemic administration of PEG-IFN-β, and “PEG-mIFN-β” represents the result of the group of systemic administration of PEG-mIFN-β.

malignant ascites = conditions: cited from earlier work

| Molecule | accumulation of ascites (amount of ascites) [1] | accumulation of ascites (amount of ascites) [2] | response rate (malignant ascites; daily and topical administration at a dose of 18,000,000 units, Wakui et al.) | therapeutic effects in malignant ascites (malignant ascites; topical administration of 6,000,000 units at three times a week) |
| --- | --- | --- | --- | --- |
| B1 | not inhibited | not inhibited | – | – |
| B2 | inhibited to a normal level | remarkably inhibited | – | – |
| B3 | – | – | less than 50% | has not yielded any substantial therapeutic effects |
